For the assay, the target named is T1, human CYP11B1 (Homo sapiens, UniProt P15538).
T1 sequence (P15538 25-503): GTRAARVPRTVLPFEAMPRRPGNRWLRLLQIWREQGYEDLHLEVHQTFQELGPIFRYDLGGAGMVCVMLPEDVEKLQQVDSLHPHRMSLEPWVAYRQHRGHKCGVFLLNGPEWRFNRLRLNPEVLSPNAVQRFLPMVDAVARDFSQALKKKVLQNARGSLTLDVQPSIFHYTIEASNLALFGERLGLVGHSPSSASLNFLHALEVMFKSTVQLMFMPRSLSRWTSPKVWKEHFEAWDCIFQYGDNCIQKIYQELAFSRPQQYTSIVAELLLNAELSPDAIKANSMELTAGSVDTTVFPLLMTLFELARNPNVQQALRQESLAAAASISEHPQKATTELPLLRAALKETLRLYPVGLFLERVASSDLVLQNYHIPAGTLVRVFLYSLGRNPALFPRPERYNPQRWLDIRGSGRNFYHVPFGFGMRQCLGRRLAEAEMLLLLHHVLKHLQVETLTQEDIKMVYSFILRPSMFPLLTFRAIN
The experiment in a line: Spectral ligand binding titration. Particulars: 0.2 μM CYP11B1, 5 cm cuvettes.

With `N#Cc1ccc([C@H]2CCCc3cncn32)cc1` [(R)-fadrozole], the Amax was found to be 0.021 (1:1 CYP11B1 to adrenodoxin) and 0.014 (CYP11B1 alone).
The like results for `N#Cc1ccc([C@@H]2CCCc3cncn32)cc1` [(S)-fadrozole] were, in that order, 0.023 and 0.010.

These data come from publication PMC9907956 (Journal of inorganic biochemistry, 2022).
